The list shows a part of the results, in another mix than the full data. Calls of active or inactive are those of the source. Rule as the data show it: active = inhibition above about 5% (passing the limit was not always enough); inactive = the rest.
biological target: Tyrosine-protein kinase ABL1 (Homo sapiens) + Ras and Rab interactor 1 (Homo sapiens) (UniProt P00519+Q13671); experiment: disruptors of human Abl and Rin1 association – biochemical, TR-FRET, primary screen (AID 588664); settings: TR-FRET Rin1/Abl binding, at 7.35 µM, active compounds read high

The chains behind the UniProt entries cited, without tags or fusion partners.
UniProt P00519, whole entry, looked up: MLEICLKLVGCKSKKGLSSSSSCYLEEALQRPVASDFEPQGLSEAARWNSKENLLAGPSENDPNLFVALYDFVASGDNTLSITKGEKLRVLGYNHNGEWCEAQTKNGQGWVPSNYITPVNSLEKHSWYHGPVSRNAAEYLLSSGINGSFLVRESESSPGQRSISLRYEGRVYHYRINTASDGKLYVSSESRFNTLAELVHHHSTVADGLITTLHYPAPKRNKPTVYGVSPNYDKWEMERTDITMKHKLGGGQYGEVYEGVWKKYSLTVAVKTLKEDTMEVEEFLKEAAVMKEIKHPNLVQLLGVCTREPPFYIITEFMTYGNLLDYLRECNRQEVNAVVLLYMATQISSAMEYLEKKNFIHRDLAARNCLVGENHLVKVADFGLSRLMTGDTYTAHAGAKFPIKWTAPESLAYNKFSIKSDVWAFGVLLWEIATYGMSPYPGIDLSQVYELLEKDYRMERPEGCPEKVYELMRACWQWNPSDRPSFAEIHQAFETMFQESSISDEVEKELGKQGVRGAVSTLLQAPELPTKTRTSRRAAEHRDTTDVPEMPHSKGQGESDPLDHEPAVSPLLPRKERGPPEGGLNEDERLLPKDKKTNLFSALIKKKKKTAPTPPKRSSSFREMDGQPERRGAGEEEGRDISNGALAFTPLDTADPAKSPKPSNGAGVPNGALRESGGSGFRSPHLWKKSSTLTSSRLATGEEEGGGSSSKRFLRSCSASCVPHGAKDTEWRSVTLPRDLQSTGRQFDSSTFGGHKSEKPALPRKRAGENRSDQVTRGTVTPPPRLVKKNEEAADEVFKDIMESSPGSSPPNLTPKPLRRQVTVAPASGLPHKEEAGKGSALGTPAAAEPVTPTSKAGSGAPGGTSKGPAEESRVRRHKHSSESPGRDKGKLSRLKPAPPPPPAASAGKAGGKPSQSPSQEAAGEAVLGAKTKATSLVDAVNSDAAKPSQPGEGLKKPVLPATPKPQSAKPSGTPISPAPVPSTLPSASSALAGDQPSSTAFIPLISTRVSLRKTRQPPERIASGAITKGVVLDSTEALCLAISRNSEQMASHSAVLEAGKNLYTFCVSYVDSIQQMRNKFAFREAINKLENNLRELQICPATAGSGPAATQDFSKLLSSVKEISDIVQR
UniProt Q13671, whole entry, looked up: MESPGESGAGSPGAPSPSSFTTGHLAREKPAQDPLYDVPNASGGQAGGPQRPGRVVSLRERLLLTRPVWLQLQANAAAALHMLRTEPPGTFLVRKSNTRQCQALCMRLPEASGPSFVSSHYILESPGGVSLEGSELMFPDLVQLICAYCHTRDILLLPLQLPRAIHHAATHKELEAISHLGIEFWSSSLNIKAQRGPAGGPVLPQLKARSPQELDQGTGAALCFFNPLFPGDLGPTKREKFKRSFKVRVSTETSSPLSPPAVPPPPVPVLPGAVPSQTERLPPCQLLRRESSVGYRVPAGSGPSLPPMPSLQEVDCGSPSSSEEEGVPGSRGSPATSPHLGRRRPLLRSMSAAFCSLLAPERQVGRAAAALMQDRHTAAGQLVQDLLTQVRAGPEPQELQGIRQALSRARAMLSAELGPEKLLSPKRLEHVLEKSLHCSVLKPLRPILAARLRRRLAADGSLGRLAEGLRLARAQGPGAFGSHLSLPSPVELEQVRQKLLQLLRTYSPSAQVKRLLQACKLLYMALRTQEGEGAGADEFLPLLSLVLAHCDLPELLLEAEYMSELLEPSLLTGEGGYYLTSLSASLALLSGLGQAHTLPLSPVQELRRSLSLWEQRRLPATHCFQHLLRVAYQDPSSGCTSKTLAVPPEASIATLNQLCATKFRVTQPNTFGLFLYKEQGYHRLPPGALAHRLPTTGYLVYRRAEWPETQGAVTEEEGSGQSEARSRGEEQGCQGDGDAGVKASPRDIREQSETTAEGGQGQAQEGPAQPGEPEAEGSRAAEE

Row | SMILES | inhibition
1 | COc1ccccc1OP(C)(=O)Nc1c(C)cccc1C (stereo unspecified) | inactive: -3.64%
2 | CN1CCCCC1COC(=O)C1(O)c2ccccc2CCc2ccccc21 (stereo unspecified) | inactive: -3.48%
3 | CCCOc1ccc(NP(C)(=O)Oc2ccc(Cl)cc2)cc1 (stereo unspecified) | inactive: 0.41%
4 | CP(=O)(Nc1ccc(SC(F)(F)F)cc1)Oc1ccccc1 (stereo unspecified) | inactive: -0.9%
5 | CCOC(=O)C(CC)C1=NC(C)(C)Cc2ccccc21.O=[N+]([O-])c1cc([N+](=O)[O-])c(O)c([N+](=O)[O-])c1 (stereo unspecified) | inactive: -3.03%
6 | CC1=C2N=C(C=C3N=C(C(C)=C4[N-][C@@](C)([C@@H]5N=C1[C@](C)(CCC(=O)NC[C@@H](C)OP(=O)([O-])O[C@H]1[C@@H](O)[C@@H](n6cnc7cc(C)c(C)cc76)O[C@@H]1CO)[C@H]5CC(N)=O)[C@@](C)(CC(N)=O)[C@@H]4CCC(N)=O)[C@@](C)(CC(N)=O)[C@@H]3CCC(N)=O)C(C)(C)[C@@H]2CCC(N)=O.[C-]#N.[Co+3] | inactive: 0.66%
7 | O=[N+]([O-])c1cc([N+](=O)[O-])c(Nc2nnnn2CCO)c([N+](=O)[O-])c1 | inactive: -7.17%
8 | O=[N+]([O-])c1cc([N+](=O)[O-])c(-c2cnn(-c3ccccc3)c2)c([N+](=O)[O-])c1 | inactive: -1.93%
9 | Cc1nc2ccc3ccccc3c2s1.O=[N+]([O-])c1cc([N+](=O)[O-])c(O)c([N+](=O)[O-])c1 | inactive: 1.35%
10 | O=[N+]([O-])c1cc([N+](=O)[O-])c(-n2nnc3ccccc32)c([N+](=O)[O-])c1 | inactive: 2.84%
11 | CN(Cc1cccnc1)C(=O)COc1ccc(Cl)c(Cl)c1.O=[N+]([O-])c1cc([N+](=O)[O-])c(O)c([N+](=O)[O-])c1 | inactive: 0.29%
12 | Cc1cc(C)cc(OP(C)(=O)Nc2ccccn2)c1 (stereo unspecified) | inactive: -2.6%
13 | CP(=O)(Nc1cccc(Br)c1)Oc1ccccc1 (stereo unspecified) | inactive: 1.22%
14 | Cc1ccc(C)c(NP(C)(=O)Oc2ccccc2)c1 (stereo unspecified) | inactive: 2.95%
15 | COc1ccccc1OP(C)(=O)Nc1cccc(Br)c1 (stereo unspecified) | inactive: -1.61%
16 | Cc1cc(C)cc(OP(C)(=O)Nc2ccc(C)cc2C)c1 (stereo unspecified) | inactive: -1.16%
17 | CCOC(=O)c1ccc(NP(C)(=O)Oc2cc(C)cc(C)c2)cc1 (stereo unspecified) | inactive: -1.83%
18 | CC1=NCCc2c1[nH]c1ccccc21.O=[N+]([O-])c1cc([N+](=O)[O-])c(O)c([N+](=O)[O-])c1 | inactive: 0.34%
19 | O=C(O)c1cccc(Nc2c([N+](=O)[O-])cc([N+](=O)[O-])cc2[N+](=O)[O-])c1 | inactive: -6.06%

Row | SMILES | inhibition
20 | CCOC(=O)c1ccc(NP(C)(=O)Oc2ccccc2)cc1 (stereo unspecified) | inactive: 1.63%
21 | Cc1ccc(NP(C)(=O)Oc2ccccc2)c(C)c1 (stereo unspecified) | inactive: 0.31%
22 | COc1ccccc1OP(C)(=O)Nc1ccc(C)cc1 (stereo unspecified) | inactive: 1.62%
23 | COc1ccc(OP(C)(=O)Nc2cccc(F)c2)cc1 (stereo unspecified) | inactive: -4.84%
24 | COc1ccccc1OP(C)(=O)Nc1cc(Cl)ccc1C (stereo unspecified) | inactive: -1.73%
25 | Cc1cc(C)cc(OP(C)(N)=O)c1 (stereo unspecified) | inactive: -2.35%
26 | O=[N+]([O-])c1cc([N+](=O)[O-])c(Nc2cccnc2)c([N+](=O)[O-])c1 | inactive: -5.7%
27 | Cc1cccc(C)c1OP(C)(N)=O (stereo unspecified) | inactive: -2.15%
28 | CC(C)(C)c1ccc(OP(C)(=O)Nc2ccc(SC(F)(F)F)cc2)cc1 (stereo unspecified) | inactive: -1.26%
29 | O=[N+]([O-])c1ccc2c(c1)C=Nc1ccccc1O2 | inactive: -4.49%
30 | CCN(CC)CCCOC(=O)C(O)(c1ccccc1)c1ccccc1 | inactive: 3.61%
31 | CCOP(C)(=S)SCC(=O)NC(C)C(=O)O (stereo unspecified) | inactive: 3.1%
32 | CCOC(=O)c1ccc(NP(C)(=O)Oc2ccc(OC)cc2)cc1 (stereo unspecified) | inactive: 1.32%
33 | O=[N+]([O-])c1cc([N+](=O)[O-])c(O)c([N+](=O)[O-])c1.c1ccc(Oc2ccncc2)cc1 | inactive: -2.77%
34 | CP(=O)(Nc1ccccn1)Oc1ccc(Cl)cc1 (stereo unspecified) | inactive: 0.88%
35 | CP(=O)(Oc1ccccc1)OC(c1ccccc1)C(F)(F)F (stereo unspecified) | inactive: 3.32%
36 | Cc1ccc(Nc2c([N+](=O)[O-])cc([N+](=O)[O-])cc2[N+](=O)[O-])cc1 | inactive: -4.86%
37 | Cc1cccc(C)c1OP(C)(=O)Nc1ccc(SC(F)(F)F)cc1 (stereo unspecified) | inactive: -0.89%
38 | CP(=O)(Nc1ccc(SC(F)(F)F)cc1)Oc1ccc(Cl)cc1 (stereo unspecified) | inactive: -1.15%

Row | SMILES | inhibition
39 | Cc1cc(C)cc(OP(C)(=O)Nc2ccc(SC(F)(F)F)cc2)c1 (stereo unspecified) | inactive: -0.66%
40 | CP(=O)(NC(=O)Nc1ccccc1)Oc1ccccc1 (stereo unspecified) | inactive: 0.45%
41 | CCc1ccc(OP(C)(=O)N2CCN(c3ccc([N+](=O)[O-])cc3)CC2)cc1 (stereo unspecified) | inactive: -8.84%
42 | CP(=S)(Nn1cnnc1)Oc1ccccc1 (stereo unspecified) | inactive: -0.33%
43 | COc1ccccc1OP(C)(=O)Nc1ccccc1 (stereo unspecified) | inactive: 2.2%
44 | CP(=O)(Nc1ccccc1Br)Oc1ccccc1 (stereo unspecified) | inactive: 4.1%
45 | CP(=O)(OC12CC3CC(CC(C3)C1)C2)OC12CC3CC(CC(C3)C1)C2 | inactive: -0.63%
46 | CCOC(=O)c1ccc(NP(C)(=O)Oc2ccc(Cl)cc2)cc1 (stereo unspecified) | inactive: 1.8%
47 | CP(=O)(Nc1ccc(Cl)cc1)Oc1ccc(F)cc1 (stereo unspecified) | inactive: 4.7%
48 | COc1ccccc1OP(C)(=O)Nc1ccccc1Br (stereo unspecified) | inactive: -2.67%
49 | CC(C)(C)c1ccc(OP(C)(=O)O)cc1 | inactive: -2.68%
50 | CN(C)C(=O)c1c([N+](=O)[O-])cc([N+](=O)[O-])cc1[N+](=O)[O-] | inactive: -0.06%
51 | COc1ccc(OP(C)(=O)Nc2ccc(Br)cc2)cc1 (stereo unspecified) | inactive: -5.24%
52 | CCN(CC)CC(O)COC(=O)C(O)(c1ccccc1)C1CCCCC1 (stereo unspecified) | inactive: -0.15%
53 | CCc1ccc(OP(C)(=O)Nc2cccnc2)cc1 (stereo unspecified) | inactive: -2.05%
54 | CP(=O)(Oc1ccccc1)N1CCOC1=O (stereo unspecified) | inactive: -1.04%
55 | O=C(OCCCN1CCCC1)C(O)(c1ccccc1)C1CCCCC1 (stereo unspecified) | inactive: -2.5%
56 | COc1ccccc1OP(C)(=O)Nc1c(C)n(C)n(-c2ccccc2)c1=O (stereo unspecified) | inactive: 1.39%

Source: PubChem BioAssay AID588664 (The Scripps Research Institute Molecular Screening Center, 2011)
